This note sets out measurements from patent publication US20250213744A1, “ANTIMICROBIAL HYDROGEL COMPOSITION” (priority 2022, published 2025).

The data set can be described thus: Ninhydrin assay, plasma induced release of gentamicin from AMPS containing hydrogel. The class given is physicochemical. The following applies: 4 minutes cold plasma, every time point up to 6 hours.

Consider gentamicin, for which the “amount of gentamicin released by plasma jet against control where plasma was not applied” value is on record as “at least twice”.
